Values quoted from earlier work, collected in patent publication US20180015051A1, “MODULATORS OF ALPHA-DICARBONYL DETOXIFICATION AND THEIR USE FOR THE TREATMENT OF DIABETIC PATHOLOGIES” (Buck Institute for Research on Aging, priority 2016, published 2018).

Settings: in mammals; Teichert et al. (2003); cited from earlier work

O=C(O)CCCCC1CCSS1 (stereo not shown) [LA, a-lipoic acid]
Metabolism: extensively metabolized
